# Antibody variant affinities, Ab-14 light chain, assay 1

Target peptide (SARS-CoV-2 spike, HR2 region): PDVDLGDISGINAS

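Variants in AAYL50 differ from the parent at up to three CDR positions; double and triple changes were sampled at random. In AlphaSeq, yeast of one mating type display the scFv and yeast of the other type display the target. The frequency of each diploid, read from paired DNA barcodes, reflects how well the two displayed proteins bind. Scores were corrected for input abundance and mapped to Kd with protein pairs of known affinity run in the same pool. The assay was run in three technical replicates.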

Each scFv is VH, a (GGGGS)3 linker, VL, as in the parent Ab-14, and differs from it in the CDRs of the light chain only.
VH: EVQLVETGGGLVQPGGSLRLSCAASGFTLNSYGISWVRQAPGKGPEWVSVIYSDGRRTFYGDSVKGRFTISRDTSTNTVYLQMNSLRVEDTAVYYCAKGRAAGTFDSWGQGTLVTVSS
VL: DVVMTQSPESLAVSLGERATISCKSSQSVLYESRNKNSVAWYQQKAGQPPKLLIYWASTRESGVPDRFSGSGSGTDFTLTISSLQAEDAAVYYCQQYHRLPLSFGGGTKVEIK

Variants are written as CDR1, CDR2 and CDR3 of the light chain (limits as in the source). Parent: KSSQSVLYESRNKNSVA, WASTRES, QQYHRLPLS. The read-out is the apparent dissociation constant on a log10 scale (nM): the lower, the stronger. "ND" means that the variant was in the library but no mating with the target was seen in that replicate; the authors take this as a sign of poor binding, and no number exists. Parent in this assay: reference entry 0.65, copy in this library 1.68.

| # | CDR-L1 | CDR-L2 | CDR-L3 | log10 Kd, replicates | signal with controls |
|---|---|---|---|---|---|
| 1 | KSSQSVLYESRNKNSVA | WASTRES | QQRHRWPLW | 1.83 / 1.37 / 1.46 | 3 of 9 (3.88) |
| 2 | KSSQSNLYESRNKNTVA | WASTRES | QQYHRHPLS | ND / ND / ND | 0 of 9 |
| 3 | KSSQSVLYESRTKNHVT | WASTRES | QQYHRLPLS | 3.99 / 3.75 / ND | 2 of 9 (3.77) |
| 4 | KSSQSVLYESRNKNSKA | MCSTRES | QQYHRLPLS | 2.05 / 2.47 / 1.70 | 0 of 9 |
| 5 | YSGQSVLYESRNKNSVA | KASTRES | QQYHRLPLS | 0.46 / 0.85 / 0.59 | 2 of 9 (4.78) |
| 6 | KSSQDVLYESRNKNSVA | WASTRWS | QQYHRLPLP | 1.35 / 1.59 / 1.65 | 0 of 9 |
| 7 | KSSQMVLYESRWQNSVA | WASTRES | QQYHRLPLS | 1.35 / 1.30 / 1.09 | 1 of 9 (3.12) |
| 8 | KSSQSVLFEFRNKNSVA | WASTREH | QQYHRLPLS | 1.09 / 1.39 / 1.96 | 0 of 9 |
| 9 | KSSQSVLEESDCKNSVA | WASTRES | QQYHRLPLS | 0.90 / 1.13 / 1.15 | 4 of 9 (3.21) |
| 10 | KSSQSVLYGSRNKNSVA | WASTRES | GQYHRHPLS | ND / ND / 4.22 | 1 of 9 (3.85) |
| 11 | LSSQSVDYEARNKNSVA | WASTRES | QQYHRLPLS | 1.39 / 1.77 / 1.52 | 3 of 9 (4.26) |
| 12 | KSSQSVLYESRNKNSVA | WASTHEY | QQYMRLPLS | 2.58 / 2.69 / 3.27 | 0 of 9 |
| 13 | KSSTSVLYESMNKNSVA | WASTRES | QQYHRLPLG | 1.27 / 1.24 / 1.23 | 3 of 9 (3.71) |
| 14 | KSSQSVLYESPNKNSVA | WASTREF | QQYHRLPLS | 0.88 / 0.95 / 1.10 | 0 of 9 |
| 15 | KSSQSVLYESRNKNACA | WASTKES | QQYHRLPLS | ND / 4.53 / ND | 0 of 9 |
| 16 | KSSQSVLYESRNKFSVV | RASTRES | QQYHRLPLS | ND / 4.32 / 3.34 | 3 of 9 (4.63) |
| 17 | KSSQSVLYESRSKNSVA | WASTIES | YQYHRLPLS | ND / ND / ND | 0 of 9 |
| 18 | KSSQSVLYESRNKNYVA | GASTRES | QQYHTLPLS | ND / ND / ND | 1 of 9 (4.52) |
| 19 | KSSQSVLYESRNKNSVA | WASTQES | QQYHRGPLS | 4.52 / ND / ND | 1 of 9 (4.04) |
| 20 | KSSQSVQYESRNKHSVA | WASTRES | QQYGRLPLS | ND / ND / ND | 1 of 9 (3.58) |
| 21 | KSSQSVLYESRNKNSVA | WAWTRES | QQYHRLRDS | ND / ND / ND | 0 of 9 |
| 22 | KSSQSVLCESRRKNSVA | WYSTRES | QQYHRLPLS | ND / ND / ND | 0 of 9 |
| 23 | YSSQSVYYESRNKNSVA | WASTRES | QSYHRLPLS | 1.71 / 2.90 / 2.70 | 1 of 9 (3.53) |
| 24 | KSSQRVLYESQNKNSVA | WAVTRES | QQYHRLPLS | 1.78 / 1.67 / 1.99 | 3 of 9 (3.97) |
| 25 | KSSQSVLYESRNKNSVA | WASHRES | YQYKRLPLS | ND / ND / ND | 2 of 9 (4.23) |
| 26 | KSSQMVLYESRNKNSVA | MASTRES | QQYHRLPLS | ND / ND / ND | 1 of 9 (4.99) |
| 27 | KSSQSVLYESREWNSVA | WASTRES | QQKHRLPLS | ND / ND / ND | 1 of 9 (4.13) |
| 28 | KSSQSVRQESRNKNSVA | WASTRES | QQYHRLPLS | 1.52 / 1.63 / 1.65 | 7 of 9 (4.67) |
| 29 | KSSQSVLYESRNKNSVA | WASTRSS | QQYHRLLLS | ND / ND / ND | 2 of 9 (4.06) |
| 30 | KSSQSVLYESRNKNMVA | WASTRES | QQYHRLRNS | ND / ND / ND | 0 of 9 |
| 31 | KSSQSVLYESRNKNSVA | WASTRGS | QQYHRLKCS | ND / ND / ND | 0 of 9 |
| 32 | KSSQSVKYESRNRNSVA | WASTRES | QHYHRLPLS | 2.32 / 2.07 / 2.10 | 5 of 9 (4.15) |
| 33 | KSSQHVDYESSNKNSVA | WASTRES | QQYHRLPLS | 0.88 / 0.80 / 0.61 | 2 of 9 (3.38) |
| 34 | KSSQSVLYESRNKNSVA | WAQTRES | QQYHRLPLC | 0.92 / 0.97 / 0.66 | 1 of 9 (2.30) |
| 35 | KSSQEVLYESRNKNSVA | MASTRES | QQYHRLPGS | 0.82 / 0.90 / 1.07 | 3 of 9 (4.51) |
| 36 | KSSQSVLYKLRNKTSVA | WASTRES | QQYHRLPLS | ND / ND / ND | 0 of 9 |
| 37 | HSSQSVLYESRNKTSVA | WASTRES | QQYWRLPLS | 2.24 / 3.12 / 2.31 | 2 of 9 (4.07) |
| 38 | KYSQSVLYEKRNKNSVA | WASTRES | QQYHWLPLS | 1.03 / 1.12 / 1.16 | 5 of 9 (4.76) |
| 39 | KSSQSVLPESRLKNSVA | WASTREE | QQYHRLPLS | 1.95 / 1.86 / 1.99 | 0 of 9 |
| 40 | KSSQSVLYESRNKYSVA | WASTRIS | QQRHRLPLS | ND / ND / ND | 2 of 9 (3.89) |
| 41 | HSSQSVLYESRNKKSVA | WASTRYS | QQYHRLPLS | 1.33 / 1.37 / 1.48 | 4 of 9 (4.34) |
| 42 | MSSQSVGYESRNKNSVA | WASTRAS | QQYHRLPLS | 0.40 / 0.62 / 0.58 | 2 of 9 (4.86) |
| 43 | KSSQSVLYESLNKSSVA | WASTRES | QQYHRLPLS | 1.59 / 1.60 / ND | 0 of 9 |
| 44 | KSSQSVLYASRNKNSYA | WCSTRES | QQYHRLPLS | ND / ND / 4.44 | 4 of 9 (3.60) |
| 45 | KSSQSVLYESFNKNFVA | WASTKES | QQYHRLPLS | 1.62 / 1.45 / 1.76 | 1 of 9 (4.55) |
| 46 | KSSQSVLYESRNKNSVA | WASTRES | QLRHRLPLV | ND / ND / ND | 0 of 9 |
| 47 | KSSQSVLYESRWKNSDA | WASTRMS | QQYHRLPLS | ND / ND / ND | 0 of 9 |

The 6 strongest on average among those seen in every replicate, once more:

CDR-L1,CDR-L2,CDR-L3,"log10 Kd, replicates",signal with controls
MSSQSVGYESRNKNSVA,WASTRAS,QQYHRLPLS,0.40 / 0.62 / 0.58,2 of 9 (4.86)
YSGQSVLYESRNKNSVA,KASTRES,QQYHRLPLS,0.46 / 0.85 / 0.59,2 of 9 (4.78)
KSSQHVDYESSNKNSVA,WASTRES,QQYHRLPLS,0.88 / 0.80 / 0.61,2 of 9 (3.38)
KSSQSVLYESRNKNSVA,WAQTRES,QQYHRLPLC,0.92 / 0.97 / 0.66,1 of 9 (2.30)
KSSQEVLYESRNKNSVA,MASTRES,QQYHRLPGS,0.82 / 0.90 / 1.07,3 of 9 (4.51)
KSSQSVLYESPNKNSVA,WASTREF,QQYHRLPLS,0.88 / 0.95 / 1.10,0 of 9

Nonspecific signal, from three strains lacking the peptide, appeared in 18% of pairings of library AAYL50, centred on 4.19 (5% of these signals below 2.99); values are not corrected for it. Also given: how often the same scFv was detected with the empty control strains, with their mean in brackets.

Source: Engelhart et al. 2022 (doi:10.1038/s41597-022-01779-4), MIT Lincoln Laboratory and A-Alpha Bio; data file from the FLAb repository.